Test system: plasma active GLP-1 level
Test: Plasma active GLP-1 level in glucose-loaded normal (DPP4-positive) rats, Example 4
Settings: rat, in vivo, 10 mg/kg

## N[C@@H](CC(=O)N1CCn2c(nnc2C(F)(F)F)C1)Cc1cc(F)c(F)cc1F [Compound H, Sitagliptin phosphate, reference compound]
  GLP-1 concentration at 2 hr after oral administration: 4.1 ± 0.5 pM
